We go through 1 compound from paper PMC8263924 (The Journal of General Physiology, 2021).

What all share (assay type): cell-based
In one experiment the target is T1, Hv1 F149W/F150A (Homo sapiens, UniProt Q96D96, F149W/F150A).
T1 sequence (Q96D96 1-273 F149W/F150A): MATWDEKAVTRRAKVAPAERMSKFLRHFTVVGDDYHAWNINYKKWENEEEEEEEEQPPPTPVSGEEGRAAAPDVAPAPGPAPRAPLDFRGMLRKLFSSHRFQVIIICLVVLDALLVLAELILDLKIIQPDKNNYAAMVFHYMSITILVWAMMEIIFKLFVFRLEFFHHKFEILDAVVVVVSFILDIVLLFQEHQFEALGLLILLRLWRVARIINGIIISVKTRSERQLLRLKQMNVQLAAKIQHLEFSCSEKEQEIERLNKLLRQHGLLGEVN
Put plainly: Inhibition of proton currents, inside-out patch clamp, Hv1 F149W/F150A.

For the next experiment, the target named is T2, Hv1 F149A/F150A (Homo sapiens, UniProt Q96D96, F149A/F150A).
T2 sequence (Q96D96 1-273 F149A/F150A): T1 sequence (Q96D96 1-273 F149W/F150A) with W149A
Description: Inhibition of proton currents, inside-out patch clamp, Hv1 F149A/F150A. For orientation: The patch-clamp technique gives a direct electrical read-out from membranes.

Another experiment has as its target T3, Hv1 F150A/F182A (Homo sapiens, UniProt Q96D96, F150A/F182A).
T3 sequence (Q96D96 1-273 F150A/F182A): T1 sequence (Q96D96 1-273 F149W/F150A) with W149F, F182A
Description: Inhibition of proton currents, inside-out patch clamp, Hv1 F150A/F182A.

The next experiment has as its target T4, Hv1 F150A (Homo sapiens, UniProt Q96D96, F150A).
T4 sequence (Q96D96 1-273 F150A): T1 sequence (Q96D96 1-273 F149W/F150A) with W149F
Put plainly: Inhibition of proton currents, inside-out patch clamp, Hv1 F150A.

The target of a further experiment is T5, Hv1 F150A/F182W (Homo sapiens, UniProt Q96D96, F150A/F182W).
T5 sequence (Q96D96 1-273 F150A/F182W): T1 sequence (Q96D96 1-273 F149W/F150A) with W149F, F182W
Put plainly: Inhibition of proton currents, inside-out patch clamp, Hv1 F150A/F182W.

The structures appear in SMILES notation. Changes are numbered by the printed parent chain.

`N=C(N)Nc1nc2ccccc2[nH]1` [2GBI, 2-guanidinobenzimidazole]: the IC50 (in general, the concentration needed to halve the response being measured) at Hv1 F149W/F150A was 123 ± 6 nM; against Hv1 F149A/F150A, 14 ± 2 nM; against Hv1 F150A/F182A, 826 ± 22 nM; against Hv1 F150A it was 118 ± 7 nM; at Hv1 F150A/F182W, 33 ± 1 nM.
